Key:
[1] = Ratio between the inhibition of serotonin and dopamine uptake.
[2] = Ratio between the inhibition of norepinephrine and dopamine uptake.

Fc1ccc(C(OCCC2CCN(Cc3ccc4ccccc4c3)CC2)c2ccc(F)cc2)cc1
Ratio [1]: 38
Ratio [2]: 13

O=[N+]([O-])c1ccc(CN2CCC(CCOC(c3ccccc3)c3ccccc3)CC2)cc1
Ratio [1]: 1310
Ratio [2]: 76

Brc1ccc(CN2CCC(CCOC(c3ccccc3)c3ccccc3)CC2)cc1
Ratio [1]: 250
Ratio [2]: 101

Fc1ccc(CN2CCC(CCOC(c3ccc(F)cc3)c3ccc(F)cc3)CC2)cc1
Ratio [1]: 75
Ratio [2]: 40

Fc1ccc(C(OCCC2CCN(Cc3ccc(I)cc3)CC2)c2ccc(F)cc2)cc1
Ratio [1]: 75
Ratio [2]: 40

O=[N+]([O-])c1ccc(CN2CCC(CCOC(c3ccc(F)cc3)c3ccc(F)cc3)CC2)cc1
Ratio [1]: 226
Ratio [2]: 33
